Measured values taken from patent publication US8791145B2, “Agricultural formulations with acyl morpholines and polar aprotic co-solvents” (Akzo Nobel Chemicals International B.V., priority 2010, dated 2014).

Assay: Solubility in acyl morpholines
Format: physicochemical
Conditions: 23° C.
Procedure: Various agriculturally active ingredients were dissolved in N-formyl morpholine, N-acetyl morpholine and N-propionyl morpholine in order to evaluate the solubility of the active ingredients in the solvents. This was done by adding the active ingredient to a beaker and thereafter adding the solvent until a clear solution was obtained. The solutions were continually stirred at a temperature of 23° C. during the experiments. When everything had been dissolved, the beakers were left without stirring for 24 h to see if the solution was stable (i.e. no crystallization).

SMILES | Dissolution of active ingredient into N-acetyl morpholine (NAM) | Dissolution of active ingredient into N-formyl morpholine (NFM) | Dissolution of active ingredient into N-propionyl morpholine (NPM)
Cc1cc(Cl)ccc1OCC(=O)O [MCPA] | >100 grams of active ingredient in 100 g solvent | >100 grams of active ingredient in 100 g solvent | >100 grams of active ingredient in 100 g solvent
CC(C)c1nn(C(=O)NC(C)(C)C)c(=O)n1N [Amicarbazone] | 24 grams of active ingredient in 100 g solvent | 26 grams of active ingredient in 100 g solvent | 24 grams of active ingredient in 100 g solvent
